From patent publication US6426331B1, “Inhibitors of STAT function” (Tularik Inc., priority 1998, dated 2002) come the findings set out here.

Chains of the proteins cited; added tags and fusions are not shown.
UniProt P42226, whole entry: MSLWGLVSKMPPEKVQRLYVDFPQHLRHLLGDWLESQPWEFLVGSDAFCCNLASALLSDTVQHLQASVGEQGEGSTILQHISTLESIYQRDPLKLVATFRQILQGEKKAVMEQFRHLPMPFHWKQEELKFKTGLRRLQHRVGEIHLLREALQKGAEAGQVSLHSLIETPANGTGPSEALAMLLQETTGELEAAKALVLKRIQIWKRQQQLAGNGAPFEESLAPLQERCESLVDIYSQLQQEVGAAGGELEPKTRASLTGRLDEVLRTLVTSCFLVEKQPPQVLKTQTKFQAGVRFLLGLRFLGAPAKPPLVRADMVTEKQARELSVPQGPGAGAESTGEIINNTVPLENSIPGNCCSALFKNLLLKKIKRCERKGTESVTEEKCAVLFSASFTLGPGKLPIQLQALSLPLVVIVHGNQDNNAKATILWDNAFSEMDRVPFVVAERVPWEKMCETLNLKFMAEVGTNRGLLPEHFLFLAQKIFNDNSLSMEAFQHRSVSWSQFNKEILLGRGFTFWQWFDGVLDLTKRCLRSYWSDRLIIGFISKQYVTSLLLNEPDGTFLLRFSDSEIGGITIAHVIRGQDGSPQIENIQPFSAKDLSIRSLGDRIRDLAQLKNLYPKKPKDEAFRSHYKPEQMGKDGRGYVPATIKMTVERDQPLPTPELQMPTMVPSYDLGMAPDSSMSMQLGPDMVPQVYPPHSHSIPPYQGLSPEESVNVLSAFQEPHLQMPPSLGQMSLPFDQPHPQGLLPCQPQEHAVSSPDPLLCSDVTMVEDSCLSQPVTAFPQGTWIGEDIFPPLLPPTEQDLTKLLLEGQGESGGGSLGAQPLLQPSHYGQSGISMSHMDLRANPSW

The IC50 is the concentration at which inhibition is half-maximal. Read a low IC50 as higher potency.

Some results are limits rather than exact numbers.

The assay concerns the target STAT6 (Homo sapiens, UniProt P42226). Briefly: Inhibition of STAT6 binding (duplex formation). The conditions noted are these: Table 5. The procedure: The compounds of the present invention can be evaluated for STAT binding activity using methods such as those described in U.S. Pat. No. 6,207,391 (for STAT6 binding). Other assays for STAT binding can be found in, for example, U.S. Pat. Nos. 5,618,693, 5,639,858 and 5,756,700.
Using methods similar to those described in Examples 1 and 2, the compounds provided in Table 1 were prepared and evaluated as inhibitors of STAT6 binding (duplex formation). The assay is described in U.S. Pat. No. 6,207,391, filed Mar. 31, 1998. In each of the tables below: a + symbol indicates and IC50 of >100 μM; a ++ symbol indicates and IC50 of 50-100 μM; a +++ symbol indicates and IC50 of 1-50 μM; and a ++++ symbol indicates and IC50 of <1.0 μM.

`CC(C)(C)[C@H](NC(=O)/C=C/c1ccc(OP(=O)(O)O)cc1)C(=O)N1CCC[C@H]1C(=O)N(Cc1ccccc1)Cc1ccccc1` yielded an IC50 of less than 1000 nM.
